Measured values: patent publication US8258098B2, “Antitumoral treatments” (Pharma Mar, S.A., priority 2006, dated 2012)

Test system: MRI-H187 melanoma tumor xenografts
Experiment: Net tumor volume in tumor xenografts
Format: in vivo, female athymic mice
Conditions: Aplidine 50 μg/kg, DTIC 40 mg/kg, Carboplatin 25 mg/kg, i.p.
Description: Athymic nude female mice were received from Harlan Sprague Dawley, Madison, Wis. at 4-5 weeks of age. Mice were acclimated to the laboratory for at least one week prior to implantation of tumor. Animals were housed in static cages with food and water allowed ad libitum. Experimental animals were implanted with either tumor fragments derived from transplantation established human tumors or with cells obtain directly from in vitro culture. Tumors were implanted subcutaneously on the right flank on Day 0.
Tumor size measurements were recorded twice weekly beginning on day 4 or 5 using vernier calipers. The formula to calculate volume for a prolate ellipsoid was used to estimate tumor volume from 2-dimensional tumor measurements: tumor volume (mm^3)=(length×width^2)÷2. Assuming unit density, volume was converted to weight (i.e., 1 mm^3=1 mg). […] Treatments were initiated and administered on an individual body weight basis. A dose range finding study was performed on each tumor model to determine the appropriate dose level of each compound used in the combination studies.

N.N.O=C([O-])C1(C(=O)[O-])CCC1.[Pt+2] [carboplatin]
Net Tumor Volume ± S.E.M. (MRI-H187, DAY 20): 143 ± 13 mg
Net Tumor Volume ± S.E.M. (MRI-H187, DAY 31): 398 ± 76 mg
Net Tumor Volume ± S.E.M. (MRI-H187, DAY 49): 1447 ± 261 mg
